In ChEMBL document CHEMBL1255325, “Plasmid-mediated qepA gene among Escherichia coli clinical isolates from Japan” (2008) one finds MIC data, which are given here for one sequence.

What is called MIC is the least concentration at which growth counts as inhibited. The low end stands for inhibition by little substance, the high end for a need for much substance.

In this assay the test system is Escherichia coli. Conditions: isolate DH10B.

GENTAMICIN displayed a minimal inhibitory concentration (MIC) of 0.5 µg/mL.
